How the values were obtained:
[1] = tested on: airway resistance, an M3R-mediated response; assay: Methacholine-induced airway resistance in anaesthetized mice; settings: i.v. methacholine, range for individual mice
[2] = tested on: heart rate, an M2R-mediated response; assay: Methacholine-induced heart rate response in anaesthetized mice
hM3R-Δi3 = hM3R-Δi3 (Homo sapiens, UniProt P20309); assay: Equilibrium [3H]-NMS competition binding, M3R; settings: read-out: affinity in equilibrium binding (M3R); may be affected by ligand depletion
hM1R = hM1R (Homo sapiens, UniProt P11229); assay: Equilibrium [3H]-NMS competition binding, M1R; settings: read-out: M1R Ki
hM4R = hM4R (Homo sapiens, UniProt P08173); assay: Equilibrium [3H]-NMS competition binding, M4R; settings: read-out: M4R Ki
hM5R = hM5R (Homo sapiens, UniProt P08912); assay: Equilibrium [3H]-NMS competition binding, M5R; settings: read-out: M5R Ki
M3R [3] = target: T1, M3R (Homo sapiens, UniProt P20309); assay: Competition association binding kinetics with [3H]-NMS
M3R [4] = target: T1, M3R; assay: IP accumulation (IP-One HTRF), carbachol-stimulated HEK-293 cells; settings: data not shown
M3R [5] = target: T1, M3R; assay: β-arrestin-2 recruitment (PathHunter), carbachol-stimulated HEK-293 cells; settings: data not shown

By UniProt entry, the sequences of proteins in these tests, tags left out. Where a name states a change or a piece, a line headed by the entry shows the natural chain unless it says otherwise. Residues count along the entry.
UniProt P20309, whole entry, looked up, stated change not applied: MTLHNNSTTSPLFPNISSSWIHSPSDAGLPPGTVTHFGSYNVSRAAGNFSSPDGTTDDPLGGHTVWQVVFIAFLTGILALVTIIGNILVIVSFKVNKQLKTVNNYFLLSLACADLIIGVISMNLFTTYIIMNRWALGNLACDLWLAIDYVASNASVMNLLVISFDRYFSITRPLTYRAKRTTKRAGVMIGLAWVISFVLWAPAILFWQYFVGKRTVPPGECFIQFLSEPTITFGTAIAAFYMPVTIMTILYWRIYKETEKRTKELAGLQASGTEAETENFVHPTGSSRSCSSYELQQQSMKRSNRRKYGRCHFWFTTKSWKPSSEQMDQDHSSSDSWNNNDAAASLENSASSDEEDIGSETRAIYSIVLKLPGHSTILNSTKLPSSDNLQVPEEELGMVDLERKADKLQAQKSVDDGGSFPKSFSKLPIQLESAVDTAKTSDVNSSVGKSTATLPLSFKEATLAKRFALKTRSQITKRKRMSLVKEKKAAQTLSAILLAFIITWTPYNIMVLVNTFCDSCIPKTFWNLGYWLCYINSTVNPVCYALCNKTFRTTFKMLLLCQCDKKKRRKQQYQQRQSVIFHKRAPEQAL
UniProt P20309, 483-590 limits assumed: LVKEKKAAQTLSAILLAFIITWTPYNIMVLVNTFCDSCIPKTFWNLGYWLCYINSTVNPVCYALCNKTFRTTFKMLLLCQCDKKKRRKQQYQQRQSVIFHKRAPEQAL
UniProt P20309, 1-260 limits assumed: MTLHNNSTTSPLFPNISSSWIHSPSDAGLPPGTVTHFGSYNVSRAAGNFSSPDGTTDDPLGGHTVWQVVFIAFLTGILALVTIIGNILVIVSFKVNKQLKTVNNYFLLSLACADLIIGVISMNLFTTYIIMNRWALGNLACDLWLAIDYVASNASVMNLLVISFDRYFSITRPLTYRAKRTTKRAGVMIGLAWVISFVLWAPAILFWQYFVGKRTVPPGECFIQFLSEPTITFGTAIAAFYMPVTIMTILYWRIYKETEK
UniProt P11229: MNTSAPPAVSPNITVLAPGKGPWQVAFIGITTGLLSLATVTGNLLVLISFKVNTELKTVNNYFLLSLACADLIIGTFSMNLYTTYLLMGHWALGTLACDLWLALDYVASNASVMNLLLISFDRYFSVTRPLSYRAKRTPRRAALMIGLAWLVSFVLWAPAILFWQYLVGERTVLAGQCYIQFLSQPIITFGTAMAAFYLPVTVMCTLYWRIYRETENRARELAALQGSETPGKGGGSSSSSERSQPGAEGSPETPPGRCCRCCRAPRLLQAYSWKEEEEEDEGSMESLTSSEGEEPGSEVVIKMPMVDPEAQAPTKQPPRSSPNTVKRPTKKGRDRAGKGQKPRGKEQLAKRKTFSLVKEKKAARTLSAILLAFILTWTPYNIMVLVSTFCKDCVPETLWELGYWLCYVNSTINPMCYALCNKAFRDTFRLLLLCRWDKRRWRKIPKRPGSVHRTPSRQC
UniProt P08173, whole entry, looked up: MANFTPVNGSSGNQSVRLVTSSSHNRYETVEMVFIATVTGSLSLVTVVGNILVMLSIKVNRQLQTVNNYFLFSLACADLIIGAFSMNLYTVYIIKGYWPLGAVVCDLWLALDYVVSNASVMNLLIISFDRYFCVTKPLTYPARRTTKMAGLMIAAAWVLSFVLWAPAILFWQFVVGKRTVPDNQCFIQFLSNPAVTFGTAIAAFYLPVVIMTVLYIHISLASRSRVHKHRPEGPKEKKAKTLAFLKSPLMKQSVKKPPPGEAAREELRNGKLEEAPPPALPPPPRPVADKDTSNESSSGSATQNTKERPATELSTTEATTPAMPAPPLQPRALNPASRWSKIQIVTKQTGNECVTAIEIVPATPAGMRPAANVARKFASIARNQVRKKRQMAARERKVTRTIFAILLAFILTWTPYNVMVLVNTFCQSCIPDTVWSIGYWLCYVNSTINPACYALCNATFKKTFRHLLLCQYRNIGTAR
UniProt P08912, whole entry, looked up: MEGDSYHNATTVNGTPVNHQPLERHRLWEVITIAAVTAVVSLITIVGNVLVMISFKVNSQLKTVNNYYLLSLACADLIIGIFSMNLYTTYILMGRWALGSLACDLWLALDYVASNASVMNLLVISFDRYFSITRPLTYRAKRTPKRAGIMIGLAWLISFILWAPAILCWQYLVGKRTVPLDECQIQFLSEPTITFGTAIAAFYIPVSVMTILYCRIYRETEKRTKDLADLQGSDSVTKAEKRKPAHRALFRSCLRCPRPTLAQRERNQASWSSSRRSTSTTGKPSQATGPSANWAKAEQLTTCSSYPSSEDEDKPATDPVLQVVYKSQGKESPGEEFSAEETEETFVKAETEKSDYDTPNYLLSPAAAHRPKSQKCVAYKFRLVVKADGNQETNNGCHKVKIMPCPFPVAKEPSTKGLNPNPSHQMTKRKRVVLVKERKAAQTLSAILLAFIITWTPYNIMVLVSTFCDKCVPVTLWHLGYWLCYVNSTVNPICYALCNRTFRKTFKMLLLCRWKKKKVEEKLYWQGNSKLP

SMILES: CC(=O)OC(C)C[N+](C)(C)C (stereo not drawn)
- increase of airway resistance [1]: 25.3 to 87.6%
- reduction of heart rate ([2]; i.v. methacholine, range for individual mice): −13.6 to −22.7%

SMILES: C[N+]1(C)C2CC(OC(=O)Nc3ccc(F)cc3-c3cccs3)CC1C1OC12 (stereo not drawn)
- Ki (hM3R-Δi3): 0.027 nM
- Ki (hM1R): 0.011 nM
- Ki (hM4R): 9 pM
- Ki (hM5R): 0.047 nM
- Kd from association and dissociation rates (M3R [3]; M3R membranes): 12 pM
- dissociation half-life (M3R [3]; M3R, room temperature): 890 min
- preference for M3R over M2R (kinetic Kd) (M3R [3]; from association/dissociation rates): 33 fold
- agonist properties, IP accumulation (M3R [4]): no agonist properties
- agonist properties, β-arrestin recruitment (M3R [5]): no agonist properties

SMILES: O=C(Nc1ccc(F)cc1-c1ccccc1)OC1CN2CCC1CC2 (stereo not drawn)
- mean heart rate response to methacholine after pretreatment ([2]; pretreatment 1 * 10^−7 mol/kg vs saline, then methacholine): no significant difference

Source: publication PMC6255194, “Structure-guided development of selective M3 muscarinic acetylcholine receptor antagonists” (2018)
